These are literature values, as cited in patent US20120288495A1, “THERAPEUTIC COMPOSITIONS AND METHODS” (BIOTHERA, INC., priority 2009, published 2012).

For this data set the following is noted: recommended dose regimen 400 mg/m^2 initial dose/250 mg/m^2 weekly dose; cited from earlier work.

Take cetuximab: the “time to steady-state levels” value was “by the third weekly infusion”.
